Tests used:
[1] = tested on: Trio-N; set-up: method as in PMID 11595749; conditions: cited from earlier work
[2] = biological target: T1, full-length P-Rex1 (Homo sapiens, UniProt Q8TCU6); assay: Liposome-based GEF activity assay, PIP3-stimulated full-length P-Rex1; format: biochemical; conditions: pilot experiment, 37 nM prenylated EE-Rac1; read-out: IC50 on Rac-GEF activity of P-Rex1
T1 construct: Full-length N-terminally EE-tagged P-Rex1, P-Rex2, the P-Rex1 DH and DHPH domains and the P-Rex2 DH domain were produced in Sf9 cells; made in house; host or cells: Sf9 cells (baculovirus)
Description: All small GTPases and GEFs used were human recombinant proteins. EE-Rac1, EE-Rac2, GST-Cdc42 or GST-RhoA were expressed in Sf9 cells by baculoviral transduction and purified using their epitope tag in their post-translationally prenylated form using Triton X-114 phase separation, essentially as previously described. Briefly, frozen pellets from a 1 litre culture of Sf9 cells transduced with high-titre baculovirus expressing the small GTPase were resuspended in ice-cold Sf9-cell lysis buffer 1 (1x PBS, 40 mM HEPES pH 7.5 at RT, 5 mM MgCl2, 10 mM EGTA, 300 µM GDP, 1 mM DTT, 200 µM PMSF, 20 μg/ml each of leupeptin, pepstatin A, aprotinin and antipain) and lysed by sonication. Triton X-114 was added (to 1% final concentration), and samples were ultracentrifuged at 118,000 × g for 50 min at 4°C. The supernatant was warmed at 37°C until cloudy (30–60 seconds) and centrifuged at 1300 × g for 2 min at 37°C. The upper phase containing non-lipid modified GTPase was discarded and replaced with ice-cold Sf9-cell lysis buffer. The warming/centrifugation steps were repeated twice and lipid-modified GTPase resuspended in ice-cold Sf9-cell lysis buffer 1 supplemented with Triton X-100 (1% final concentration), followed by ultracentrifugation at 118,000 × g for 50 min at 4°C. […] Protein concentration and purity was determined by coomassie staining of SDS-PAGE gels. […]

The chains behind the UniProt entries cited, without tags or fusion partners.
UniProt Q8TCU6, whole entry: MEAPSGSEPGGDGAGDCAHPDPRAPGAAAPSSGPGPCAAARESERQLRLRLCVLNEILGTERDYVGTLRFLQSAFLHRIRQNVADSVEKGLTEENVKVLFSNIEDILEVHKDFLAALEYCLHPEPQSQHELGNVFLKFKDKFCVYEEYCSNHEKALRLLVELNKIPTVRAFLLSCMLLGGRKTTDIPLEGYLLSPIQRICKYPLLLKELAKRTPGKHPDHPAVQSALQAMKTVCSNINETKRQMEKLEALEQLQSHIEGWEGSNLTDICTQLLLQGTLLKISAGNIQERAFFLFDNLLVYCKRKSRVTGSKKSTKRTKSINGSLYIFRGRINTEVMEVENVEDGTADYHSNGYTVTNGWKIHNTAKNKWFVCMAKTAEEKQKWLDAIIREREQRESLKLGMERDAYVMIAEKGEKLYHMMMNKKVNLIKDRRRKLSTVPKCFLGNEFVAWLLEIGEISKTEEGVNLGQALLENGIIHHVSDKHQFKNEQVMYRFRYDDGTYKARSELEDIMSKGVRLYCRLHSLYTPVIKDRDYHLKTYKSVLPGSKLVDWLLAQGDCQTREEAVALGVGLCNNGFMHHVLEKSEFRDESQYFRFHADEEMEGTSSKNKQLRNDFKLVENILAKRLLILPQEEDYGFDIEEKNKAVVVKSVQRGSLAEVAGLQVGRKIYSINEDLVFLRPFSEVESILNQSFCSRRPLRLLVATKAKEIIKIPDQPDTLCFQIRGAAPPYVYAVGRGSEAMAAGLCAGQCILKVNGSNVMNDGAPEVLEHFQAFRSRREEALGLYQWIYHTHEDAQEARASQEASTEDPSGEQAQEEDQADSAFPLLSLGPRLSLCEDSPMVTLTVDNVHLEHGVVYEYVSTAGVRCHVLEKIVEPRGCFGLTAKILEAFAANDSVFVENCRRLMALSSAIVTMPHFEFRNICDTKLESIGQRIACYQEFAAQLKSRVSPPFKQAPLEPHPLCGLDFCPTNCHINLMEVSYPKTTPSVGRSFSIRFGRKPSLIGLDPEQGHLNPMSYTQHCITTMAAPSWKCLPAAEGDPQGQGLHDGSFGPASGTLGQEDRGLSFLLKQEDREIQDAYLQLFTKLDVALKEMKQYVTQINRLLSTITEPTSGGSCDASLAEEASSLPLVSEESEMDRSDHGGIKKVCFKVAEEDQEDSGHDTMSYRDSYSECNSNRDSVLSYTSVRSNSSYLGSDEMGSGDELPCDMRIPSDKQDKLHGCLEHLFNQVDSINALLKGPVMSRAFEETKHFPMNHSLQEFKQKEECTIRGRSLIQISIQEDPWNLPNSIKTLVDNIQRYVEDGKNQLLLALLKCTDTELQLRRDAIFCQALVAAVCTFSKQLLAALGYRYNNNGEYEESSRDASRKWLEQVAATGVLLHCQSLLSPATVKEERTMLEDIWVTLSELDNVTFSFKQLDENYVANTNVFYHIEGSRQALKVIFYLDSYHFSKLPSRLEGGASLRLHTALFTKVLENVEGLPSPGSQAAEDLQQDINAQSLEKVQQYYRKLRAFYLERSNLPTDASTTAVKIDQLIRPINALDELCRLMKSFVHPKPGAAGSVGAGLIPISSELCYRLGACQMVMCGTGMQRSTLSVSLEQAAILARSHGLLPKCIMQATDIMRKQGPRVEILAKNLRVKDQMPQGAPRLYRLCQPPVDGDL

[3] = tested on: Tiam1; set-up: method as in PMID 11595749; conditions: cited from earlier work

- IC50 [2]: ~250 µM
Structure (SMILES): CSCC[C@H](N)C(=O)N[C@H](C(=O)N[C@@H](CC(=O)O)C(=O)NCC(=O)N[C@@H](CCCCN)C(=O)N1CCC[C@H]1C(=O)N[C@H](C(=O)N[C@@H](CC(N)=O)C(=O)N[C@@H](CC(C)C)C(=O)NCC(=O)N[C@@H](CC(C)C)C(=O)N[C@@H](Cc1c[nH]c2ccccc12)C(=O)N[C@@H](CC(=O)O)C(=O)N[C@H](C(=O)N[C@@H](C)C(=O)NCC(=O)O)[C@@H](C)O)C(C)C)C(C)C [W56 peptide]
- concentration blocking the interaction of Rac1 with Trio-N [1]: above 200 µM
- concentration blocking the interaction of Rac1 with Tiam1 [3]: above 200 µM

— paper PMC9645260, “Small-molecule inhibitors of P-Rex guanine-nucleotide exchange factors” (Small GTPases, 2022)
